We go through one molecule from doi:10.1101/2024.02.25.581915 (bioRxiv, 2024).

The target in the assay is INTS7 (recombinant, in the reconstituted DSS1–INTAC complex) (human, UniProt Q9NVH2). The assay is described as follows: cryo-EM structure.

B1: DSS1 in the reconstituted DSS1–INTAC complex (pLVX-DSS1-WT co-expressed in Expi293F) (natural protein)
chain: MSEKKQPVDLGLLEEDDEFEEFPAEDWAGLDEDEDAHVWEDNWDDDNVEDDFSNQLRAELEKHGYKMETS
As for B1, the binding result was “binds”.
